From patent US9611270B2, “Inhibitors of CYP17A1” (University of Kansas, priority 2014, dated 2017)
Like-named read-outs stand apart in the source and are kept apart here.

Protein sequences, listed by entry. Tags and fused reporters are not part of them. Residues count along the entry.
UniProt P08686, 19-495: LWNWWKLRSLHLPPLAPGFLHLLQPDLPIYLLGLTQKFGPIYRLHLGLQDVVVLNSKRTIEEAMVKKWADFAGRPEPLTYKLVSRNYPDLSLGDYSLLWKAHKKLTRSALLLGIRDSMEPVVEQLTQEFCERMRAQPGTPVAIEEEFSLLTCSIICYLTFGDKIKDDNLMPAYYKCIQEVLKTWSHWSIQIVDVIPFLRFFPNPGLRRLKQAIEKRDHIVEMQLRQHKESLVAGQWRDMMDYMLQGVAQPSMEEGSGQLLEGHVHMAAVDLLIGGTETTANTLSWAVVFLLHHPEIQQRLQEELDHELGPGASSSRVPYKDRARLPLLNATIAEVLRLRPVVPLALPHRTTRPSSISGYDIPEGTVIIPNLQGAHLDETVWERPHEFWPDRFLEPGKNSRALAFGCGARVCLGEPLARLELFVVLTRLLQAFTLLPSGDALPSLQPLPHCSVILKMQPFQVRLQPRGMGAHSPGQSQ

Biological target: human CYP21A2 (Homo sapiens (Human), UniProt P08686)
Assay: Analysis of 21-hydroxyprogesterone generation by CYP21A2 using GC/MS
Type: biochemical
Excerpt: Two methods for detecting enzymatic activity were utilized. […] University of Kansas, Lawrence, K S, 2011.
Toxicol. Appl. […] Mol. Endocrinol. 2007, 21, 1958-1968.
The CYP21A2 construct that was used, CYP21A2dH, was also engineered as according to published procedures. See, e.g., Blake, L. C.; Scott, E. E. Cytochromes P450 as therapeutic targets and counter-targets for the prevention of lung cancer and treatment of steroidogenic diseases. University of Kansas, Lawrence, K S, 2012. In this construct, the “d” refers to an 18 amino acid N-terminal deletion. An N-terminal solubility tag was added, in addition to a C-terminal four-histidine tag (“H”). […] “Full-length CYP21A2” will be specifically designated when appropriate. […]
GC/MS was performed on an Agilent Technologies 6850 Network GC System equipped with a 6850 series autosampler and an Agilent Technologies 5975C VL MSD with triple axis detector. […] For quantitative analysis, the characteristic ions of the monitored steroids were determined as their poly-TMS derivatives. […]
The amount of 21-hydroxyprogesterone present was determined by GC-MS analysis using single ion monitoring (M/Z 546.35, ca. 26 min retention time), and analyzed against the estriol internal standard peak (M/Z 504.30, ca. 15 min retention time). Progesterone (M/Z 458.30, ca. 16 min retention time) was detected for quality control among reactions and standards. […]

C[C@]12CC[C@H](O)CC1=CC[C@@H]1[C@@H]2CC[C@]2(C)C(c3cccnc3)=CC[C@@H]12 [abiraterone, 17-(3-Pyridyl)-androst-5,16-dien-3β-ol, reference compound]
IC50 (progesterone 21-hydroxylation, 0.5 μM progesterone, purified CYP21A2 with POR 1:4, ± standard error, read-out: CYP21A2 IC50): 296 ± 26 nM

C[C@]12CC[C@H](O)CC1=C(C#N)C[C@@H]1[C@@H]2CC[C@]2(C)C(c3cccnc3)=CC[C@@H]12 [Compound 38, 6-Cyano-17-(3-pyridyl)-androst-5,16-dien-3β-ol]
IC50: 537 ± 52 nM
